# From PubChem
# INS-1E GSIS act = primary screen for activators of insulin secretion dependent on glucose, INS-1E cells, GLuc reporter luminescence | INS-1E GLuc reporter insulin secretion, 2-3 h | activation, % at 16.6 µM | hit rate 0.61% among 370,000;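 active = lowest replicate activation of at least 40%, so every replicate reaches that level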
# SR-BI DiI inh = mouse SR-BI HDL lipid transfer inhibition | Q61009 | ldlA[mSR-BI] CHO cells, DiI-HDL uptake fluorescence, 3 h | inhibition, % at 12.5 µM | hit rate 0.96% among 320,000;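 active = mean replicate inhibition of at least 70% and a set share of replicates each scoring 70 or more; inconclusive = meets just one of the two criteria; inactive = fails both criteria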
# Yeast UUG start = modulators of yeast start codon fidelity, primary screen, whole organism, S. cerevisiae, single point, plate reader; S. cerevisiae UUG-firefly luciferase reporter, luminescence/redox ratio; activity score, % at 18.7 µM; actives 0.13% (n = 350,000); AID 602363, 2012;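 active = replicate mean at a twofold rise or more, about +100% in these data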;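 also: firefly luciferase made from a UUG start codon reports start codon fidelity; reporter light over untreated wells divided by growth signal over untreated wells; some hits fall short of that in this replicate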
# SR-BI DiI-HDL act = activators of SR-BI mediated HDL lipid uptake; hit rate 0.096% among 320,000; AID 504775; CHO ldlA[mSR-BI] cells, DiI-HDL uptake fluorescence, 3 h; 100 = double the neutral-control signal; activation, % at 12.5 µM;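 active = mean replicate activation of at least 60% and every replicate at or above 60%; inconclusive = mean or all-replicate condition met, but not both; inactive = mean below 60% and not all replicates reaching 60%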
#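 Test system: SR-BI-overexpressing, LDLR-lacking CHO cells; Medium: Ham's F12 with 0.5% BSA, HEPES 25 mM, pH 7.4; Schedule: 3 h, 37 °C; Technique: bottom-read fluorescence, 550/595 nm.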
# A number is an active result; 0 = inactive; ? = inconclusive; - = no result; ! = not active in a repeat. Rows were chosen to be rich in hits. Some 1.3% of all compounds tested hit in one or more screens of this group.
SMILES,INS-1E GSIS act,SR-BI DiI inh,Yeast UUG start,SR-BI DiI-HDL act
COC(=O)C[C@@H]1C[C@@H]2c3cc(NS(=O)(=O)c4ccc(OC)cc4)ccc3O[C@@H]2[C@H](CO)O1,0,-,0,-
NC(=NCCCCCCN=C(N)/N=C(\N)Nc1ccc(Cl)cc1)/N=C(\N)Nc1ccc(Cl)cc1,0,0,0,92!
COc1cccc(C(=O)Nc2ccc3c(c2)C(=O)N(C)C[C@@H](OC)[C@H](C)CN(C)[C@@H](C)CO3)c1,0,-,0,-
O=C1c2cc(S(=O)(=O)NCCO)ccc2-c2ccc(S(=O)(=O)NCCO)cc21,0,0,-,0
N#CC(C#N)=C1c2cc(S(=O)(=O)NCCO)ccc2-c2ccc(S(=O)(=O)NCCO)cc21,0,0,0,197
CNC(=O)C[C@@H]1CC[C@H]2[C@H](COc3ccc(NC(=O)c4ccc(F)cc4)cc3C(=O)N2C)O1,0,-,0,-
Cc1cccc(NC(=O)CCS(=O)(=O)c2cccc3nsnc23)c1C,-,0,0,70
CCOC(=O)c1cccc(NC(=O)CCS(=O)(=O)c2cccc3nsnc23)c1,-,0,-,0
COCC#Cc1ccc2c(c1)O[C@H](CN(C)C(=O)NC(C)C)[C@H](C)CN([C@@H](C)CO)S2(=O)=O,0,-,0,-
O=C(Nc1ccccc1F)N[C@@H]1C=C[C@H](CC(=O)N2CCCCC2)O[C@H]1CO,0,-,0,-
O=S(=O)(c1ccccc1)c1cnc(-c2ccccc2)nc1N1CCCC1,0,85,-,0
Cc1ccc(S(=O)(=O)c2cnc(-c3ccccc3)nc2N2CCCCC2)cc1,0,0,-,0
Cc1sc(N/N=C/c2cccs2)nc1-c1ccccc1,0,73,-,0
Cc1sc(NC(=O)c2cccs2)nc1-c1ccccc1,-,0,0,0
COc1ccc(/C=C/C=O)cc1,-,-,0,-
Cc1nc(N2CCOCC2)nc(N2CCC(C)CC2)c1[N+](=O)[O-],-,0,-,0
CC1CCCN(c2nc(NCc3ccco3)nc(N)c2[N+](=O)[O-])C1 (stereo unspecified),0,0,-,0
Cc1ccc(Nc2nc(N)c([N+](=O)[O-])c(N3CCOCC3)n2)cc1,56,0,-,0
Cc1ccc(Nc2nc(N)c([N+](=O)[O-])c(N3CCCC(C)C3)n2)cc1C (stereo unspecified),60,0,0,0
Cc1nc(N2CCOCC2)nc(N2CCN(c3ccccc3)CC2)c1[N+](=O)[O-],-,78,0,0
O=C(Cc1cccnc1)N[C@H]1CC[C@@H](CCn2cc(Cc3ccccc3)nn2)O[C@H]1CO,0,-,0,-
CCCC(=O)Nc1ccc2c(c1)OC[C@@H](C)N(C(=O)CC1CC1)C[C@H](C)[C@H](OC)CN(C)C2=O,0,-,0,-
COCC(=O)Nc1ccc2c(c1)[C@H]1C[C@H](CC(=O)NCc3ccccc3)O[C@H](CO)[C@H]1O2,0,-,0,-
C[C@@H]1CN([C@H](C)CO)S(=O)(=O)c2ccc(C#CC3CC3)cc2O[C@H]1CN(C)C(=O)c1cccc(F)c1,0,-,-,-
COc1ccc(N2CCN(C(=O)Cc3csc(NC(=O)Nc4ccccc4OC)n3)CC2)cc1,0,80,0,0
SMILES,INS-1E GSIS act,SR-BI DiI inh,Yeast UUG start,SR-BI DiI-HDL act
COc1ccccc1NC(=O)Nc1nc(CC(=O)N2CCN(c3ccc(F)cc3)CC2)cs1,0,76,0,0
COc1ccccc1NC(=O)Nc1nc(CC(=O)N2CCN(c3ccccc3)CC2)cs1,0,?,-,0
Cc1ccc(-c2cc(C(=O)Nc3cc(C)on3)c3ccccc3n2)c(C)c1,0,78,0,0
Cc1cc(NC(=O)c2cc(-c3ccccc3C)nc3ccccc23)no1,0,0,0,0
Cc1ccc(C)c(NC(=O)c2cc(C)nc3ccccc23)c1,0,79,0,0
Cc1cc(C(=O)NC(C)CCC(C)C)c2ccccc2n1 (stereo unspecified),56,0,-,0
CNC[C@@H]1Oc2ccc(NS(=O)(=O)c3cccs3)cc2C(=O)N([C@H](C)CO)C[C@H]1C,0,-,0,-
CCC(=O)N(C)C[C@@H]1Oc2cc(C3=CCCCC3)ccc2S(=O)(=O)N([C@H](C)CO)C[C@@H]1C,0,-,-,-
CNC(=O)C[C@H]1CC[C@H]2[C@H](COc3ccc(NC(=O)C(C)C)cc3C(=O)N2C)O1,0,-,0,-
CNC[C@@H]1Oc2c(NS(=O)(=O)c3c(C)noc3C)cccc2C(=O)N([C@H](C)CO)C[C@@H]1C,0,-,0,-
Cc1cc(N2CCN(Cc3ccccc3)CC2)n2nc(C)c(-c3ccccc3)c2n1,-,0,0,0
Cc1nn2c(N3CCCC3)cc(C(C)C)nc2c1-c1ccccc1,-,74,0,0
Cc1cc(N2CCCCC2)n2nc(C)c(-c3ccccc3)c2n1,-,0,0,0
Cc1nn2c(N3CCN(C)CC3)cc(C(C)(C)C)nc2c1-c1ccccc1,0,0,0,0
COc1ccc(-c2c(C)nn3c(N4CCN(Cc5ccccc5)CC4)cc(C)nc23)cc1OC,0,77,0,0
Cc1cc(N2CCC(C)CC2)n2nc(C)c(-c3ccccc3)c2n1,-,75,0,0
C[C@H]1CCCCO[C@@H](CN(C)C(=O)c2ccccc2)[C@@H](C)CN([C@@H](C)CO)C(=O)c2cc(NC(=O)c3ccncc3)ccc2O1,0,-,0,-
COCC(=O)N(C)C[C@@H]1Oc2ncc(-c3cccc(OC)c3)cc2C(=O)N([C@@H](C)CO)C[C@@H]1C,0,-,0,-
CCOc1[nH]n(-c2ccccc2)c(=O)c1C=Nc1ccc(OC)cc1,0,0,0,0
CCOc1[nH]n(-c2ccc(Cl)cc2)c(=O)c1C=Nc1ccc(Cl)cc1,-,75,0,0
O=c1c2ccccc2nc(N/N=C/c2c(O)ccc3ccccc23)n1O,-,129,0,0
O=c1c2ccccc2nc(N/N=C/c2ccc(O)cc2)n1O,-,0,0,0
CC(=O)N(C)C[C@H]1Oc2ncc(-c3ccccc3C)cc2C(=O)N([C@@H](C)CO)C[C@@H]1C,0,-,0,-
NC(=S)N/N=C1\CCSc2ccc(Cl)cc21,0,81,0,0
O=C(N/N=C1\CCSc2ccc(F)cc21)c1cccnc1,0,0,-,0
SMILES,INS-1E GSIS act,SR-BI DiI inh,Yeast UUG start,SR-BI DiI-HDL act
COCCn1c(=S)[nH]c2sc3c(c2c1=O)CCCC3,45,0,0,0
FC(F)C(F)(F)Oc1cccc(Nc2nccn3c(-c4cccc5cccnc45)cnc23)c1,0,-,0,-
COc1ccccc1-c1cnc2c(Nc3cccc(OC(F)(F)C(F)F)c3)nccn12,79,-,0,-
COc1ccc(CCNC(=O)c2cnc3scc(C)n3c2=O)cc1OC,61,0,0,0
C[C@@H]1CN([C@@H](C)CO)C(=O)c2cc(NC(=O)Nc3ccccc3)ccc2O[C@@H]1CN(C)S(=O)(=O)c1ccccc1,0,-,0,-
CC(C)NC(=O)Nc1cccc2c1O[C@@H](CN(C)S(=O)(=O)c1cccs1)[C@H](C)CN([C@H](C)CO)C2=O,0,-,-,-
COc1cc(-c2noc(C)c2/C=C/c2cccc([N+](=O)[O-])c2)cc(OC)c1OC,0,81,0,0
COc1cc(-c2noc(C)c2/C=C/c2ccc(C(=O)O)cc2)cc(OC)c1OC,-,0,0,0
COc1cccc(CNC(=O)C[C@@H]2CC[C@@H](NC(C)=O)[C@@H](CO)O2)c1,0,-,-,-
O=C(Cc1ccc(Cl)cc1)NCCS(=O)(=O)N1CCN(c2ccccc2F)CC1,0,0,0,0
